Test results as given in PubChem BioAssay (Tox21).
Where “and” joins values, the source holds several entries; their conditions need not be identical. Equal entries are not always repeated. This is a selection; strong and weak results do not stand in their true shares. Records with an inconclusive call do not appear. Calls of active or inactive are those of the source. Unless noted, the call rests on the fitted dose curve; in most records, active means well fitted curve in the direction sought with a large enough effect in the repeat runs; inconclusive means weak or mixed curves; inactive means no such curve, though single readings can be large; an effect the other way counts as inactive or inconclusive.

The chains behind the UniProt entries cited, without tags or fusion partners.
UniProt P06401, whole entry: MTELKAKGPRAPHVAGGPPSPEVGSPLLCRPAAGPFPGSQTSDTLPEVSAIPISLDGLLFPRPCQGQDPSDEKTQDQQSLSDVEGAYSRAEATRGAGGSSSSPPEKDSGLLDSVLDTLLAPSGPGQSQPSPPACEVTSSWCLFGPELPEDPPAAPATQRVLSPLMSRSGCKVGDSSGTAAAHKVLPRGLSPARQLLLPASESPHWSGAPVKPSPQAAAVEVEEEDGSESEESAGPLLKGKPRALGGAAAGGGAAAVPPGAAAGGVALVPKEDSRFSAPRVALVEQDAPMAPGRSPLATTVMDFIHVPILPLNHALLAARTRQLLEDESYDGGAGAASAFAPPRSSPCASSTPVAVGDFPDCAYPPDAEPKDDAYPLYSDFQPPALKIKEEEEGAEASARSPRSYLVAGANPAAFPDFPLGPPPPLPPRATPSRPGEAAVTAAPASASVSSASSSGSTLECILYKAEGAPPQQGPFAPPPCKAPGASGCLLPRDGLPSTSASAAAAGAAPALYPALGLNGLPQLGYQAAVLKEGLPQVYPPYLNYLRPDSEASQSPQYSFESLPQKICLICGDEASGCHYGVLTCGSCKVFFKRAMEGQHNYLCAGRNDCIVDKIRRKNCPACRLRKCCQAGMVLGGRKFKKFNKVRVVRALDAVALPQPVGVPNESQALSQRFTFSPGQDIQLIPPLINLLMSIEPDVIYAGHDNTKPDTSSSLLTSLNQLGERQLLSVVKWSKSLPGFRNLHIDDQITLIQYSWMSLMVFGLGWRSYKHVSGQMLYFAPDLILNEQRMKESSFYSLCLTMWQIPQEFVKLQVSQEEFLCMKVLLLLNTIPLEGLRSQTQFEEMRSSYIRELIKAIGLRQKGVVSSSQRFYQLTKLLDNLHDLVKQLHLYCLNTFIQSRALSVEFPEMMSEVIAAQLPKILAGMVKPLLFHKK
UniProt P34981, whole entry: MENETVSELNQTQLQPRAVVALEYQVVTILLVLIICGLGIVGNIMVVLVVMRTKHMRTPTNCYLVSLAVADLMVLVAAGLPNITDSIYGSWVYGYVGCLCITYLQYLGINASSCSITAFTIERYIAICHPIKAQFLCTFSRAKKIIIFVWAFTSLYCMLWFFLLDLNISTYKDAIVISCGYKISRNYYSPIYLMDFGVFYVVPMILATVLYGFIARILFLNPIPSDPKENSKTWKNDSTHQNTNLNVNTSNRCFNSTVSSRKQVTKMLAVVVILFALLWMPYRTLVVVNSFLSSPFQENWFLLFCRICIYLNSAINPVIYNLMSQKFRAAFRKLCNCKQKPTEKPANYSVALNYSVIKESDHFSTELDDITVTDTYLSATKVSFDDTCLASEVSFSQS

Columns and labels:
[1] = qHTS assay to identify small molecule agonists of the estrogen receptor alpha (ER-alpha) signaling pathway in the presence of an antagonist - cell viability counter screen (AID 1259386); details: VM7Luc4E2 viability, CellTiter-Fluor fluorescence, 22 h; at 92.4 µM (top of the series) unless noted;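 further: cells exposed to compounds for 22 h at 37 °C before the viability read; nearly all actives have a fitted effect of over 30% in size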
Summary of the method: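 Cells are starved of estrogens for 5 days in charcoal-stripped serum, seeded for 24hr and co-treated with ICI-182,780 (10.0nM final) and test compounds. After 22hr at 37C, viability is read as CellTiter-Fluor fluorescence.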

[2] = biological target: Progesterone receptor (Homo sapiens) (UniProt P06401); assay: qHTS assay to identify small molecule agonists of the progesterone receptor (PR) signaling pathway (AID 1346784; calls by dose curve; further: nearly all actives have a fitted effect of over 30% in size); details: PR-UAS-bla HEK293T, beta-lactamase FRET ratio, 16 h; at 92.4 µM (top of the series) unless noted
Summary of the method: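 Seed PR-UAS-bla HEK 293T cells (2% charcoal-stripped FBS), incubate 6 hr at 37C; add compounds in DMSO, 16 hr at 37C; add LiveBLAzer B/G substrate, 2 hr RT; read fluorescence intensity.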

[3] = biological target: Progesterone receptor (Homo sapiens) (UniProt P06401); assay: qHTS assay to identify small molecule antagonists of the progesterone receptor (PR) signaling pathway (AID 1346795; active means well fitted inhibition curve with a large enough effect in the signal ratio in the repeat runs, not every such curve was filed as active; the % refers to the signal ratio); details: PR-UAS-bla HEK293T, beta-lactamase FRET ratio, 16 h; at 92.4 µM (top of the series) unless noted
Summary of the method: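 Screening used a GripTite HEK293T line with PR-responsive UAS-beta-lactamase. Cells were challenged with compound in the presence of 1 nM R5020 final for 16 hr at 37C; B/G FRET substrate, 2 hr room temperature, fluorescence.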

[4] = qHTS assay to identify small molecule antagonists of the progesterone receptor (PR) signaling pathway - cell viability counter screen (AID 1346798); details: PR-UAS-bla HEK293T viability, CellTiter-Glo luminescence, 16 h; at 92.4 µM (top of the series) unless noted; further: nearly all actives have a fitted effect of over 50% in size
Summary of the method: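 Measures cytotoxicity in parallel with the PR antagonist reporter read: HEK293T PR-UAS-bla cells get compound and R5020 for 16 hr, and remaining viable cells are quantified by CellTiter-Glo luminescence.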

[5] = qHTS assay to identify small molecule agonists of the progesterone receptor (PR) signaling pathway - cell viability counter screen (AID 1346799; calls by dose curve; further: nearly all actives have a fitted effect of over 45% in size); details: PR-UAS-bla HEK293T viability, CellTiter-Glo luminescence, 16 h; at 92.4 µM (top of the series) unless noted
Summary of the method: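 Using the same plates as the PR reporter screen, HEK293T PR-UAS-bla cells received compounds for 16 hr at 37C and were then lysed with CellTiter-Glo; luminescence was read 30 min later at room temperature.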

[6] = qHTS assay to identify small molecule antagonists of the TGF-beta/Smad signaling pathway - cell viability counter screen (AID 1346824); details: SBE-bla HEK293T viability, CellTiter-Glo luminescence; at 76.8 µM (top of the series) unless noted; further: nearly all actives have a fitted effect of over 50% in size
Summary of the method: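 Cytotoxicity counter-screen run in the same wells as the beta-lactamase Smad reporter read: CellTiter-Glo luminescence after 30 min at room temperature. HEK 293T SBE-bla cells had 5 hr compound exposure at 37 C with TGF-beta1 (0.25 ng/mL stock).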

[7] = qHTS assay to identify small molecule agonists of the TGF-beta/Smad signaling pathway - cell viability counter screen (AID 1346829); details: SBE-bla HEK293T viability, CellTiter-Glo luminescence, 5 h; at 76.8 µM (top of the series) unless noted; further: top concentration of the series differs between compounds; nearly all actives have a fitted effect of over 45% in size
Summary of the method: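 After overnight seating at 37 C and 5% CO2, reporter cells got compounds for 5 hr and FRET substrate for 2 hr; cell viability then came from CellTiter-Glo luminescence.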

[8] = qHTS assay to identify small molecule agonists of the TGF-beta/Smad signaling pathway (AID 1346859; active means well fitted activation curve with a large enough effect in the signal ratio in the repeat runs, not every such curve was filed as active; the % refers to the signal ratio); details: SBE-bla HEK293T, TGF-beta/Smad beta-lactamase reporter, 5 h; at 76.8 µM (top of the series) unless noted
Description: U.S. Tox21 Program National Center for Advancing Translational Sciences [NCATS] NIH Chemical Genomics Center [NCGC] U.S. Environmental Protection Agency [EPA] National Institutes of Environmental Health Sciences [NIEHS] National Toxicology Program [NTP] U.S. Food and Drug Administration [FDA] Tox21 Assay Overview: Transforming growth factor beta (TGF-beta) superfamily consists of a large number of structurally related dimeric proteins that act as hormones or local mediators in regulating a wide range of biological functions. This superfamily includes TGF-betas themselves, the bone morphogenetic proteins (BMPs) and the activins. These ligands induce oligomerization of serine/threonine receptor kinases and phosphorylate the cytoplasmic signaling molecules of Smad protein family. CellSensor SBE-bla HEK 293T cell line (Life Technologies, Carlsbad, CA), responsive to TGF-beta was used to screen Tox21 10K compound library for identification of agonists/antagonists of the Smad signaling pathway. This cell line contains a beta-lactamase reporter gene under control of the Smad binding element (SBE) stably integrated into HEK 293T cells.
Tox21 Assay Protocol Summary: SBE-bla HEK 293T cells were dispensed at 4,000/well in 6 uL of assay medium into black wall/clear-bottom 1536-well plates using a Multidrop Combi (ThermoFisher Scientific, Waltham, MA) dispenser. After the assay plates were incubated at 37 C and 5% CO2 for an overnight, 23 nL of compounds dissolved in DMSO, positive controls or DMSO only was transferred to the assay plate by a Pintool station (Kalypsys, San Diego, CA). The assay plates were incubated at 37 C and 5% CO2 for 5 hr. One uL of LiveBLAzer B/G FRET substrate (Life Technologies) was added using a Flying Reagent Dispenser (Aurora Discovery, San Diego, CA) and the plates were incubated at room temperature for 2 hr. Fluorescence intensity (405 nm excitation, 460 nm and 530 nm emissions) was measured using an Envision plate reader (PerkinElmer, Shelton, CT).

[9] = biological target: Thyrotropin-releasing hormone receptor (Homo sapiens) (UniProt P34981); assay: qHTS assay to identify small molecule antagonists of the thyrotropin-releasing hormone receptor (TRHR) signaling pathway (AID 1346877; active means well fitted inhibition curve with a large enough effect in the repeat runs, not every such curve was filed as active); details: TRHR-HEK293, TRH-induced calcium fluorescence, antagonist mode; at 51.3 µM (top of the series) unless noted
[10] = biological target: Thyrotropin-releasing hormone receptor (Homo sapiens) (UniProt P34981); assay: qHTS assay to identify small molecule agonists of the thyrotropin-releasing hormone receptor (TRHR) signaling pathway (AID 1346891; calls by dose curve;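 further: HEK293 cells expressing TRHR with calcium dye readout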); details: TRHR-HEK293 calcium fluorescence, agonist mode; at 57.6 µM (top of the series) unless noted
On the % scale 0 is the no-effect control and ±100 the full control effect.

ClCCNCCCl
inactive: activity change, negative = cytotoxicity [1] -10.5% | activation [2] -0.14% | activity change, negative = inhibition [3] 0.599% | activity change, negative = cytotoxicity [4] 13.4% | activity change, negative = cytotoxicity [5] -10.2% | viability change, negative = cytotoxic [6] -0.576% | activity change, negative = cytotoxicity [7] 11.6% | activation [8] 1.66%

CCOP(=S)(Cl)OCC
inactive: activity change, negative = cytotoxicity [1] -0.406% | activation [2] 5.67% | activity change, negative = inhibition [3] 3.01% | activity change, negative = cytotoxicity [4] 10.2% | activity change, negative = cytotoxicity [5] -6.7% | viability change, negative = cytotoxic [6] -18.9% | activity change, negative = cytotoxicity [7] -5.13% | activation [8] 0.19% | activity, negative = inhibition [9] -4.37% | activation [10] -0.182%

CCOP(=O)(Cl)Cl
inactive: activity change, negative = cytotoxicity [1] 0.683% and 1.32% | activation [2] 2.53% and 0.202% | activity change, negative = inhibition [3] 10.9% and 2.39% | activity change, negative = cytotoxicity [4] 17.8% and -5.41% | activity change, negative = cytotoxicity [5] -2.63% | viability change, negative = cytotoxic [6] 1.63% and -5.5% | activity change, negative = cytotoxicity [7] 1.2% and 0.0165% | activation [8] 1.96% and 2.01% | activity, negative = inhibition [9] 1.18% and -0.804% | activation [10] -0.501% and -0.527%

ClCCOP(OCCCl)OCCCl
inactive: activity change, negative = cytotoxicity [1] -2.83% and 0.182% | activation [2] -0.445% and 1.35% | activity change, negative = inhibition [3] 1.88% and 6.57% | activity change, negative = cytotoxicity [4] 0.523% and -1.46% | activity change, negative = cytotoxicity [5] -2.53% and -0.209% | viability change, negative = cytotoxic [6] 14.5% and 15.4% | activity change, negative = cytotoxicity [7] -1.71% and 2.31% | activation [8] 2.06% and 1.81% | activity, negative = inhibition [9] 2.93% and 2.46% | activation [10] -0.127% and -0.639%

O=[N+]([O-])c1ccccc1[N+](=O)[O-]
inactive: activity change, negative = cytotoxicity [1] -12.5% | activity change, negative = cytotoxicity [4] 14.2% and 6.6% | activity change, negative = cytotoxicity [5] 6.24% | viability change, negative = cytotoxic [6] -0.865% and -2.51% | activity change, negative = cytotoxicity [7] -4.3% and 16.2% | activity, negative = inhibition [9] -2.33% and 0.543% | activation [10] 0.219% and -0.0652%

CCC(=O)N(c1ccccc1)C1CCNCC1
inactive: activity change, negative = cytotoxicity [1] 4.2% [at 42.5 µM] | activation [2] 2.84% [at 42.5 µM] | activity change, negative = inhibition [3] 0.594% [at 42.5 µM] | activity change, negative = cytotoxicity [5] 46.5% [at 42.5 µM] | viability change, negative = cytotoxic [6] -6.45% [at 35.3 µM] | activity change, negative = cytotoxicity [7] -4.96% [at 35.3 µM] | activation [8] 1.2% [at 35.3 µM]

CC(C)OP(OC(C)C)OC(C)C
inactive: activity change, negative = cytotoxicity [1] -0.22% | activation [2] 0.899% | activity change, negative = cytotoxicity [4] -10.7% | activity change, negative = cytotoxicity [5] -18.5% | viability change, negative = cytotoxic [6] -0.778% | activity change, negative = cytotoxicity [7] 10.9% | activation [8] -0.428% | activity, negative = inhibition [9] -1.6% | activation [10] -0.0963%

CCOC(=O)N1CCC(=O)CC1
inactive: activity change, negative = cytotoxicity [1] 1.34% [at 42.5 µM] | activation [2] -0.0008% [at 42.5 µM] | activity change, negative = inhibition [3] -0.826% [at 42.5 µM] | activity change, negative = cytotoxicity [4] -7.13% [at 42.5 µM] | activity change, negative = cytotoxicity [5] 8.07% [at 42.5 µM] | viability change, negative = cytotoxic [6] -4.87% [at 35.3 µM] | activity change, negative = cytotoxicity [7] 1.25% [at 35.3 µM] | activation [8] 0.986% [at 35.3 µM] | activity, negative = inhibition [9] 1.47% [at 23.6 µM] | activation [10] -0.0158% [at 26.5 µM]
